One block for each compound: values may come before it.
Target: T1, Arachidonate 5-lipoxygenase (Bos taurus, UniProt Q9BEG3)
T1 sequence (Q9BEG3 whole entry): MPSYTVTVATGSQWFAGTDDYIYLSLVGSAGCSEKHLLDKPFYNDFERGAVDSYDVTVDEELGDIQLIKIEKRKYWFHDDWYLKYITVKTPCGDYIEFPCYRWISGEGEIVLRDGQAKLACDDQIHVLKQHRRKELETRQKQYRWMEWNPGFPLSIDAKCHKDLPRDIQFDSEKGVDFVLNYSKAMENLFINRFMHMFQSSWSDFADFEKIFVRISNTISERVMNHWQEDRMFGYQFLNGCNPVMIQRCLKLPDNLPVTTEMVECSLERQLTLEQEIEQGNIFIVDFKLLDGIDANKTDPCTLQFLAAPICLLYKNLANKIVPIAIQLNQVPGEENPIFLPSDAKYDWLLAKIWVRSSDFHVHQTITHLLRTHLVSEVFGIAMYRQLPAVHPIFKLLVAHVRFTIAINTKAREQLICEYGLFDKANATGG
Test: 5-LO inhibitory activity, measured by production of 5-hydroxyeicosatetraenoic acid (5-HETE) and leukotriene B4 (LTB4) in bovine polymorphonuclear leukocytes
Type: functional, cell-based

SMILES: O=C1c2c(O)cccc2Cc2ccc(C(Cc3ccccc3)C(=O)O)c(O)c21 (stereo unspecified)
IC50: 1000 nM

SMILES: CC(C(=O)NO)c1ccc2c(c1O)C(=O)c1c(O)cccc1C2 (stereo unspecified)
IC50: 6000 nM

SMILES: CC(C)C(C(=O)O)c1ccc2c(c1O)C(=O)c1c(O)cccc1C2 (stereo unspecified)
IC50: 2000 nM

Stronger by IC50, values ahead:

IC50: 600 nM
SMILES: CN(O)C(=O)CCc1ccc2c(c1O)C(=O)c1c(O)cccc1C2

IC50: 500 nM
SMILES: CN(O)C(=O)CCCCc1ccc2c(c1O)C(=O)c1c(O)cccc1C2

IC50: 700 nM
SMILES: CN(O)C(=O)c1ccc(Cc2ccc3c(c2O)C(=O)c2c(O)cccc2C3)cc1

From ChEMBL document CHEMBL1130128, “Antipsoriatic anthrones with modulated redox properties. 4. Synthesis and biological activity of novel 9,10-dihydro-1,8-dihydroxy-9-oxo-2-anthracenecarboxylic and -hydroxamic acids” (J Med Chem, 1997)
